Measurements published in patent publication US11136311B2, “Heteroaromatic derivatives as NIK inhibitors” (Janssen Pharmaceutica NV, priority 2016, dated 2021).

By UniProt entry, the sequences of proteins in these tests, tags left out.
UniProt Q99558, whole entry: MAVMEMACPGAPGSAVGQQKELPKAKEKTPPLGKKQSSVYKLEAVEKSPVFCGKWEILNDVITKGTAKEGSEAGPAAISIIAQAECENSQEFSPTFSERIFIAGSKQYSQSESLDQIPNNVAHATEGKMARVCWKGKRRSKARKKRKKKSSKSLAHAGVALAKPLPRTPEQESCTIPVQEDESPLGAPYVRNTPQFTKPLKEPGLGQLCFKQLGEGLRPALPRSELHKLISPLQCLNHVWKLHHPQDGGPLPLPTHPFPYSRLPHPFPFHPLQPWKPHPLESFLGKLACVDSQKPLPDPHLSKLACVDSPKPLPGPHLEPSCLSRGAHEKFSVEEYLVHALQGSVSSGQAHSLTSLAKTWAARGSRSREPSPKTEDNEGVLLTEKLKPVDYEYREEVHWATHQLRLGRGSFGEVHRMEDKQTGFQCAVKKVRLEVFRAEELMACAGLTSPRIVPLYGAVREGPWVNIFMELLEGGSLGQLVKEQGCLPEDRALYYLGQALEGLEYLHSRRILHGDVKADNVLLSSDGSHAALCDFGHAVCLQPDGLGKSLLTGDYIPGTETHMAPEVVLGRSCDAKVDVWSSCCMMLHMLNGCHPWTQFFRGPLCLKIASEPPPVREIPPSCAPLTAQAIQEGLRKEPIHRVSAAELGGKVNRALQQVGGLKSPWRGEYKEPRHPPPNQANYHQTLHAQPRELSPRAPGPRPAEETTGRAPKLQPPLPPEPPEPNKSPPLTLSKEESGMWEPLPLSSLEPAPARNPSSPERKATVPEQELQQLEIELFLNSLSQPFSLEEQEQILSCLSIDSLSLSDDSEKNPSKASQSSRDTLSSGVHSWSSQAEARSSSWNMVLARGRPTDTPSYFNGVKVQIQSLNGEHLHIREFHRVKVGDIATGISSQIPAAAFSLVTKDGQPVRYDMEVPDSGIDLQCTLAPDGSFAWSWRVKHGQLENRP

How the values were obtained:
[1] = target: recombinant human NF-kappaB-inducing kinase (NIK/MAP3K14) (Homo sapiens (Human), UniProt Q99558); assay: Inhibition of auto-phosphorylation of recombinant human NIK/MAP3K14 activity (AlphaScreen); conditions: read-out: Auto-phosphorylation inhibition of NIK (IC50 (nM)), averaged values over all measurements on all batches
Procedure: Inhibition of auto-phosphorylation of recombinant human NF-kappaB-inducing kinase (NIK/MAP3K14) activity (AlphaScreen®)
NIK/MAP3K14 auto-phosphorylation activity was measured using the AlphaScreen® (αscreen) format (Perkin Elmer). All compounds tested were dissolved in dimethyl sulfoxide (DMSO) and further dilutions were made in assay buffer. Final DMSO concentration was 1% (v/v) in assays. Assay buffer was 50 mM Tris pH 7.5 containing 1 mM EGTA (ethylene glycol tetraacetic acid), 1 mM DTT (dithiothreitol), 0.1 mM Na3VO4, 5 mM MgCl2, 0.01% Tween® 20. Assays were carried out in 384 well Alphaplates (Perkin Elmer). Incubations consisted of compound, 25 microM Adenosine-5′-triphosphate (ATP), and 0.2 nM NIK/MAP3K14. Incubations were initiated by addition of GST-tagged NIK/MAP3K14 enzyme, carried out for 1 h at 25° C. and terminated by addition of stop buffer containing anti-phospho-IKK Ser176/180 antibody. Protein A Acceptor and Glutathione-Donor beads were added before reading using an EnVision® Multilabel Plate Reader (Perkin Elmer). Signal obtained in the wells containing blank samples was subtracted from all other wells and IC50's were determined by fitting a sigmoidal curve to % inhibition of control versus Log10 compound concentration.

JJN-3 cells = assay: Antiproliferative activity on JJN-3 (NIK translocated) multiple myeloma cells (CellTiter-Glo); conditions: read-out: JJN-3 Proliferation inhibition (IC50 (nM)); JJN-3 (NIK translocated) cells, 96 hr; averaged values
Procedure: (§1) Determination of antiproliferative activity on JJN-3 (NIK translocated) and KMS12-BM (NIK WT) multiple myeloma cells
(§2) All compounds tested were dissolved in DMSO and further dilutions were made in culture medium. Final DMSO concentration was 0.3% (v/v) in cell proliferation assays. Viability was assessed using CellTiter-Glo cell viability assay kit (Promega). The human JJN-3 and KMS12-BM cells (DSMZ) were cultured in RPMI 1640 medium supplemented with 2 mM L-glutamine, and 10% fetal calf serum (PAA). Cells were routinely kept as suspension cells at 37° C. in a humidified 5% CO2 atmosphere. Cells were passaged at a seeding density of 0.2×10^6/ml twice a week. Cells were seeded in black tissue culture treated 96-well plates (Perkin Elmer). Densities used for plating ranged from 15000 (JJN3) to 20000 (KMS12BM) cells per well in a total volume of 135 μl medium. Drugs and/or solvents were added (15 μl) to a final volume of 150 μl. Following 96 hr of treatment, plates were removed from the incubator and allowed to equilibrate to room temperature for approx 10 min. 75 μl CellTiter-Glo reagent was added to each well that was then covered (Perkin Elmer Topseal) and shaken on plate shaker for 10 min. Luminescence was measured on a HTS Topcount (Perkin Elmer). Within an experiment, the results for each treatment were the mean of 2 replicate wells. For initial screening purposes, compounds were tested using a 9 point dilution curve (serial 1:3 dilutions). For each experiment, controls (containing no drug) and a blank incubation (containing cells read at the time of compound addition) were run in parallel. The blank value was subtracted from all control and sample values. For each sample, the mean value for cell growth (in relative light units) was expressed as a percentage of the mean value for cell growth of the control.

KMS12-BM cells = assay: Antiproliferative activity on KMS12-BM (NIK WT) multiple myeloma cells (CellTiter-Glo); conditions: read-out: KMS-12 Proliferation inhibition (IC50 (nM)), 96 hr, averaged values
Procedure: as §1, §2

[2] = system: P-IKKα levels in L363 cells; assay: Effect of compounds on P-IKKα levels in L363 (NIK translocated multiple myeloma) cells; conditions: read-out: Inhibition of pIKKα_L-363 (IC50 (nM)), averaged values
Procedure: Effect of compounds on P-IKKα levels in L363 (NIK translocated multiple myeloma) cells
All compounds tested were dissolved in DMSO and further dilutions were made in culture medium. Final DMSO concentration was 1% (v/v) in cell assays. The human L363 cells (ATCC) were cultured in RPMI 1640 medium supplemented with GlutaMax and 10% fetal calf serum (PAA). Cells were routinely maintained at densities of 0.2×10^6 cells per ml-1×10^6 cells per ml at 37° C. in a humidified 5% CO2 atmosphere. Cells were passaged twice a week splitting back to obtain the low density. Cells were seeded in 96 well plates (Nunc 167008) at 2×10^6 per ml media in a volume of 75 μl per well plus 25 μl 1 μg/ml recombinant human B-cell activating factor (BAFF/BLyS/TNFSF13B). Seeded cells were incubated at 37° C. in a humidified 5% CO2 atmosphere for 24 hr. Drugs and/or solvents were added (20 μl) to a final volume of 120 μl. Following 2 hr treatment plates were removed from the incubator and cell lysis was achieved by the addition of 30 μl 5× lysis buffer followed by shaking on a plate shaker at 4° C. for 10 min. At the end of this incubation lysed cells were centrifuged at 800×g for 20 min at 4° C. and the lysate was assessed for P-IKKα levels by sandwich immuno-assay carried out in anti-rabbit antibody coated Mesoscale plates. Within an experiment, the results for each treatment were the mean of 2 replicate wells. For initial screening purposes, compounds were tested using an 8 point dilution curve (serial 1:3 dilutions). For each experiment, controls (containing MG132 and BAFF but no test drug) and a blank incubation (containing MG132 and BAFF and 10 μM ADS125117, a test concentration known to give full inhibition) were run in parallel. The blank incubation value was subtracted from all control and sample values. To determine the IC50 a sigmoidal curve was fitted to the plot of % inhibition of control P-IKKα levels versus Log10 compound concentration.

| Compound | IC50 [1] [nM] | IC50 (JJN-3 cells) [nM] | IC50 (KMS12-BM cells) [nM] | IC50 [2] [nM] |
| --- | --- | --- | --- | --- |
| Cn1nc(C(C)(C)C)cc1Nc1nccc(-c2cc(C#N)c3c(c2)C(C)(CO)CN3)n1 (stereo not shown) | 5.5 | 129 | 7940 |  |
| CC(C)n1nc(Nc2nccc(-c3cc(C#N)c4c(c3)[C@@](C)(CO)CN4)n2)cc1C(=O)N(C)C1CC1 | 11.7 | 257 | > 10000 | 98 |
| Cc1cc(Nc2nccc(-c3cc(C#N)c4c(c3)C(C)(CO)CN4)n2)n(CC(=O)N(C)C)n1 (stereo not shown) | 11 | 1860 | > 10000 |  |
| CN(C)C(=O)Cn1ccc(Nc2nccc(-c3cc(C#N)c4c(c3)C(C)(CO)CN4)n2)n1 (stereo not shown) | 10 | 4360 | 4170 |  |
| CC(C)CCc1c(Nc2nccc(-c3cc(C#N)c4c(c3)[C@@](C)(CO)CN4)n2)cnn1CCC(C)C |  | 112 | 6460 | 12 |
| CC(C)n1cc(Nc2nccc(-c3cc(C#N)c4c(c3)C(C)(CO)CN4)n2)cn1 (stereo not shown) | 5.4 | 191 | 437 |  |
| CC1(Cn2cc(Cl)cc2Nc2nccc(-c3cc(C#N)c4c(c3)[C@@](C)(CO)CN4)n2)COC1 |  | 832 | 2630 | 35 |
